Settings: radioactivity of oral 3H-paclitaxel 9 mg/kg; cyclosporin dose 2 × 5 mg/kg oral

Q: Which AUC0-24 does the source give for cyclosporin E here?
A: The AUC0-24 was 5.96 μg eq. hr/ml.
